Measurements taken from publication PMC7018645, “Hijacking the Fusion Complex of Human Parainfluenza Virus as an Antiviral Strategy” (mBio, 2020).
Like-named read-outs stand apart in the source and are kept apart here.

Assays:
HPIV3 CI-1 eGFP [1] = system: HPIV3 CI-1 eGFP; set-up: method as in PMID 30782664; conditions: proof-of-concept compound; cited from earlier work
HPIV3 CI-1 eGFP [2] = assay: Quantitative PCR for viral genome copy number after compound treatment; set-up: species or system human parainfluenza virus type 3; conditions: 5 mM to 78 μM, 1 h at 37°C, quantitative reverse transcription-PCR
Experimental: Quantitative PCR, using SYBR green fluorescent dye as a marker for amplification, was performed.

HPIV3 F protein = assay: Cryo-electron tomography of intact viral particles (conformation of F)

| SMILES | viral genome copy number after treatment (HPIV3 CI-1 eGFP [1]) | viral genome copy number after treatment (HPIV3 CI-1 eGFP [2]) | conformation of F on viral particles (HPIV3 F protein; 250 μM, 37°C) | overall morphology of the virus (HPIV3 F protein; 250 μM, 37°C) | conformation of F on viral particles (HPIV3 F protein; 4°C) |
| --- | --- | --- | --- | --- | --- |
| N#CCc1cc(NS(=O)(=O)c2cccs2)ccc1O [CM9, reference compound] | no change in genome copy number was detected |  |  |  |  |
| CC(=O)Nc1cc(NS(=O)(=O)c2ccc(F)cc2F)ccc1O [PAC-3066] |  | no change in genome copy number was detected | clear alteration in the conformation of F to the postfusion state | no differences in the overall morphology of the virus were observed | no difference between the treated and untreated virions |
